Our source for the relative growth values is published antibiotic growth screens (doi:10.1038/s41589-023-01349-8).

This is one part of the list.

In the assay the test system is A. baumannii ATCC 17978. Put plainly: relative growth (fraction of control); higher = less inhibition. The following applies: 50 µM.
Compound `C=CC[C@H](CC(=O)N(CCO)Cc1ccccc1)C(=O)NC[C@@H](OC(=O)[C@@H](CC=C)Cc1ccc(F)cc1)c1ccccc1` came in with a relative growth of 1.29.

In turn, `O=C(C[C@H]1CC[C@H]2[C@@H](COC[C@@H](O)CN2Cc2cccc(C(F)(F)F)c2)O1)NCCc1ccncc1` yielded a relative growth of 0.853.

`CCNc1nc(NCC)nc(OCC#N)n1`: the relative growth worked out at 1.07.

As to `Cn1ncc2c(NN3C(=O)CCC3=O)ncnc21`, the relative growth stood at 0.969. Compound `O=C(CN1CCOCC1)N[C@@H]1CC[C@H](CCn2cc(C3CC3)nn2)O[C@@H]1CO` returned a relative growth of 0.977. In the case of `O=C(C[C@@H]1CC[C@H](NS(=O)(=O)c2ccc(F)cc2)[C@H](CO)O1)NCc1ccc(Cl)c(Cl)c1`, the relative growth was 0.859.

For the compound `CC1CCc2cc(F)cc3c(=O)c(C(=O)O)cn1c23` (configuration not stated), the relative growth came to 0.146. Consider `COc1cccc(S(=O)(=O)N2C[C@H](O)COC[C@H]3O[C@H](CC(=O)N4CCN(C)CC4)CC[C@@H]32)c1`, for which the relative growth was determined as 0.89. `CC(=O)O[C@H]1C[C@](C)(O)C2=C[C@@H](O)[C@@](C)(O)[C@@H]2[C@H]2OC(=O)[C@@H](C)[C@@H]21` showed a relative growth of 1.07. For the compound `O=C(C[C@@H]1C=C[C@@H](NC(=O)C2CCC2)[C@H](CO)O1)NCCCN1CCOCC1`, the relative growth was determined as 0.892. The figure for `O=C(C[C@H]1CC[C@H]2[C@@H](COC[C@H](O)CN2S(=O)(=O)c2ccc(Cl)cc2)O1)N[C@H]1CCN(Cc2ccccc2)C1` is 0.949. The figure for `c1ccc([C@@H]2CCC[C@H](c3ccccc3)S2)cc1` is 0.984; for `C[C@H]1CN([C@@H](C)CO)S(=O)(=O)c2ccc(C#Cc3ccc(F)cc3)cc2O[C@H]1CN(C)C(=O)c1ccccn1` it is 0.713; for `C[C@H]1[C@H]([Si](C)(C)F)[C@@H](CC(=O)N(CCO)Cc2ccccc2)O[C@]12C(=O)N(c1ccccc1)c1ccccc12` it is 0.846.

`CCCOc1ccc2nc(NC(=O)OC)[nH]c2c1` returned a relative growth of 1.22. The figure for `C[C@]12C(=O)N(CCC(=O)O)C(=O)[C@H]1[C@@H]1C=C[C@@H]2C1` is 0.903. The compound `Cn1cnc(S(=O)(=O)N2C[C@H](O)COC[C@@H]3O[C@@H](CC(=O)NC4CCCC4)CC[C@H]32)c1` showed a relative growth of 1.01.

As for `CCOC(=O)C1=C(C)NC(C)=C(C(=O)OC)C1c1cccc([N+](=O)[O-])c1` (configuration not stated), the relative growth came to 1.09. The compound `Cc1onc(-c2ccccc2Cl)c1C(=O)N[C@@H]1C(=O)N2[C@@H]1SC(C)(C)[C@@H]2C(=O)[O-].[Na+]` yielded a relative growth of 1.04.

The compound `CN(C)Cc1cn(CC[C@@H]2CC[C@@H](NC(=O)Cc3cccnc3)[C@H](CO)O2)nn1` showed a relative growth of 0.946.

As for `O=C(O)[C@H]1/C(=C/CO)O[C@@H]2CC(=O)N21.[LiH]`, the relative growth stood at 0.163. Compound `CCN(CC)CCCNC(=O)C1CCNCC1` came in with a relative growth of 1.12.

In turn, `COc1ccc(/C=C2/NC(=O)NC2=O)cc1` returned a relative growth of 0.864.

As for `CCCCCCCCCCCCCCCCC(C(=O)O)C(O)(CC(=O)O)C(=O)O` (configuration not stated), the relative growth was determined as 0.945. In the case of `Cc1ccc(S(=O)(=O)N(C)C[C@@H]2Oc3cc(C#Cc4ccccc4)ccc3S(=O)(=O)N([C@@H](C)CO)C[C@H]2C)cc1`, the relative growth turned out to be 1.07. The figure for `COCC(=O)N[C@@H]1C=C[C@@H](CC(=O)N2CCCCC2)O[C@@H]1CO` is 1.09; for `CC(C)CC#Cc1cnc2c(c1)C(=O)N([C@H](C)CO)C[C@H](C)[C@H](CN(C)S(=O)(=O)c1cccs1)O2` it is 1.04. Take `CCC(=O)N[C@H]1CC[C@@H](CC(=O)OC)O[C@H]1CO`: the relative growth was found to be 1.04. The figure for `COC(=O)C[C@H]1NCCNC1=O` is 0.994; for `CCNc1nc(OCCO)nc(N(C)C)n1` it is 1.1. The figure for `CCC(=O)O[C@]1(C(=O)SCF)[C@H](C)CC2C3CC(F)C4=CC(=O)C=C[C@]4(C)C3(F)[C@@H](O)C[C@@]21C` (some centres not stated) is 1.16; for `COCC#Cc1ccc2c(c1)O[C@H](CN(C)S(=O)(=O)c1cccc(F)c1)[C@@H](C)CN([C@@H](C)CO)S2(=O)=O` it is 0.874; for `CC(=O)N1C[C@@H](O)C[C@H]1C(=O)O` it is 1.11. The figure for `O=C(C[C@@H]1CC[C@@H]2[C@H](COC[C@H](O)CN2S(=O)(=O)c2ccccc2)O1)NCCN1CCCCC1` is 0.984. For `C[C@H]1CN([C@@H](C)CO)C(=O)Cc2cc(NC(=O)Nc3cc(Cl)cc(Cl)c3)ccc2O[C@H]1CN(C)S(=O)(=O)c1ccc(Cl)cc1`, the relative growth is 0.898. In the case of `CCn1cc(C(=O)O)c(=O)c2cc(F)c(N3CCNCC3)cc21`, the relative growth was found to be 0.159.

As for `COC(=O)c1c(C)cc(OC(=O)c2c(C)cc(O)c(CO)c2O)c(C)c1O`, the relative growth amounted to 0.945. Take `O=C(C[C@@H]1CC=CC[C@@H](Cc2ccc(F)cc2)C(=O)OC[C@H](Cc2c[nH]c3ccccc23)NC1=O)NCCO`: the relative growth amounted to 0.881. For `O=C(NO)c1cccc(C(=O)N/N=C/[C@H](O)[C@@H](O)[C@H](O)[C@H](O)CO[C@H]2O[C@H](CO)[C@H](O)[C@H](O)[C@H]2O)c1`, the relative growth came out at 0.84.

Turning to `O=C(C[C@@H]1C=C[C@@H](NC(=O)CN2CCOCC2)[C@H](CO)O1)NC1CCCCC1`, the relative growth is 1.06. Take `Cc1ccc(N2C(=O)c3ccccc3[C@@H](C(=O)NCCN3CCOCC3)[C@@H]2c2ccc(CO)cc2)nc1`: the relative growth worked out at 1.18. Consider `CO[C@H]1CN(C)C(=O)c2ccc(NC(C)=O)cc2OC[C@@H](C)N(S(=O)(=O)c2cn(C)cn2)C[C@@H]1C`, for which the relative growth is 1.01.

For the compound `O=c1c(O)c(-c2ccc(O)c(O)c2)oc2c(O[C@@H]3O[C@H](CO)[C@@H](O)[C@H](O)[C@H]3O)c(O)cc(O)c12`, the relative growth came to 0.985.

Compound `COCCNC(=O)C[C@@H]1CC[C@H]2[C@@H](COC[C@@H](O)CN2S(=O)(=O)c2ccccc2C)O1` yielded a relative growth of 1.2. The figure for `COc1cc(N)ccc1N1CCCS1(=O)=O` is 0.962; for `COCCCNC(=O)[C@@]1(Cc2ccccc2I)c2ccccc2C(=O)N(C2CCCCC2)[C@H]1c1ccc(CO)cc1` it is 0.845. `COc1cc2c(cc1OC)CN(C(=O)[C@H]1[C@@H]3C(=O)O[C@@H](c4ccccc4)[C@@H](c4ccccc4)N3[C@@H](c3ccc(O)cc3)[C@]13C(=O)Nc1ccccc13)CC2` yielded a relative growth of 0.9. As to `Cc1ccc(-c2c[nH]c(=S)[nH]2)cc1`, the relative growth was 0.968. `O=C(O)Cn1c(=O)oc2ccccc21` displayed a relative growth of 0.953. `C=CCOC(=O)[C@H]1[C@@H]2C(=O)O[C@@H](c3ccccc3)[C@@H](c3ccccc3)N2[C@@H](c2ccc(OCCOC(=O)[C@@H]3C[C@@H]4C(=O)N[C@@H](CCCC[N+](C)(C)C)C(=O)N4[C@@H]3c3cccc(OCCO)c3)cc2)[C@]12C(=O)Nc1ccc(I)cc12` registered a relative growth of 1.64. On to `CN(C[C@@H](O)CN)S(=O)(=O)c1ccccc1`, for which the relative growth came out at 0.994.

On to `O=C(C[C@@H]1CC[C@@H]2[C@H](COC[C@H](O)CN2S(=O)(=O)c2ccc(F)cc2)O1)N[C@H]1CCN(Cc2ccccc2)C1`, for which the relative growth worked out at 1.1. Compound `COc1ccc(NC(=O)O[C@H]2[C@H](OC(=O)Nc3ccccc3-c3ccccc3)[C@@H](OC(=O)Nc3ccccc3-c3ccccc3)[C@@H](OC)O[C@@H]2COC(=O)NCCCCCC(=O)NO)cc1` displayed a relative growth of 0.857. In turn, `NCc1nncn1-c1ccccc1` yielded a relative growth of 1.03. In turn, `NC[C@H]1CC[C@H](C(=O)N2CCC(c3ccncc3)CC2)CC1` registered a relative growth of 1.08.

`O=C(NCC[C@@H]1CC[C@@H](NS(=O)(=O)c2cccc(F)c2)[C@@H](CO)O1)C1CC1`: the relative growth is 1.2. In turn, `Cc1cc(C(C)(C)C)c(O)c(C)c1CC1=NCCN1.Cl` had a relative growth of 1.02. Take `C=C1[C@H]2CC[C@@]3(C)[C@H](c4ccoc4)OC(=O)C[C@]13O[C@H]1C[C@H](O)C(C)(C)[C@H](CC(=O)OC)[C@]12C` [METHYL 3-DEOXY-3beta-HYDROXYANGOLENSATE]: the relative growth is 1.03.

As for `C[C@H](O)C#Cc1ccc2c(c1)O[C@@H](CN(C)C(=O)c1ccncc1)[C@H](C)CN([C@@H](C)CO)S2(=O)=O`, the relative growth worked out at 1.04.

As to `CN(C)Cc1cn(CC[C@@H]2CC[C@H](NS(=O)(=O)c3ccccc3)[C@H](CO)O2)nn1`, the relative growth came out at 1.03. Consider `CN1C(=O)c2cc(NC(=O)C3CCCC3)ccc2OC[C@@H]2O[C@@H](CC(=O)NCCc3ccncc3)CC[C@H]21`, for which the relative growth came to 1.05. The figure for `NS(=O)(=O)c1cc2c(cc1C(F)(F)F)NC(Cc1ccccc1)NS2(=O)=O` (configuration not stated) is 1.

For the compound `COc1cccc(NC(=O)N[C@H]2CC[C@@H](CC(=O)N3CCOCC3)O[C@@H]2CO)c1`, the relative growth turned out to be 0.961. Turning to `COc1ccc([Si](C)(C)[C@@H]2[C@@H](CCn3cc([C@H](O)c4ccccc4)nn3)O[C@]3(C(=O)N(Cc4ccc(N5C(=O)c6cccc7cccc5c67)cc4)c4ccccc43)[C@H]2C)cc1`, the relative growth was 1.14.

`COCC#Cc1ccc2c(c1)O[C@@H](CN(C)S(=O)(=O)c1cccc(F)c1)[C@H](C)CN([C@H](C)CO)S2(=O)=O` yielded a relative growth of 0.902.

The compound `CCCCC(=O)O[C@]1(C(=O)CO)[C@@H](C)CC2C3CCC4=CC(=O)C=C[C@]4(C)[C@@]3(F)C(O)C[C@@]21C` (some centres not stated) returned a relative growth of 0.907. For the compound `O=C(c1ccccc1F)N1c2ccccc2Sc2ccccc21`, the relative growth is 1.05.
